## Ab-14 heavy chain CDR variants: yeast mating affinities

From the AlphaSeq antibody data of Engelhart et al. 2022 (doi:10.1038/s41597-022-01779-4), copy in the FLAb collection.

Target peptide (SARS-CoV-2 spike, HR2 region): PDVDLGDISGINAS

Ab-14 is the parent antibody, in scFv form: VH, then a (GGGGS)3 linker, then VL. The light chain is unchanged in all variants.
VH: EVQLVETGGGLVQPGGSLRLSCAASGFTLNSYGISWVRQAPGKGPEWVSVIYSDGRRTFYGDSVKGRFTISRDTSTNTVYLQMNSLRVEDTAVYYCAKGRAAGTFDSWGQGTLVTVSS
VL: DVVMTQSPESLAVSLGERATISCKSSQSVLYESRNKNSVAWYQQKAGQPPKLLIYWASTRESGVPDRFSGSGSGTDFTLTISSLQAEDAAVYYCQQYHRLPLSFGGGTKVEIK

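The starting antibody came from a phage panning campaign against this peptide. Variants in AAYL49 differ from the parent at up to three CDR positions; double and triple changes were sampled at random. The scFvs were displayed on barcoded MATa yeast, the peptide on MATalpha yeast. Binding brings cells together so that they mate, and sequencing counts the barcode pairs among the diploids. Each replicate has its own calibration line, from reference interactions of the BCL2 family. There are three technical replicates.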

Changes read parent residue, position, new residue, counted from the first residue of the VH shown. The read-out is the apparent dissociation constant on a log10 scale (nM): the lower, the stronger. "nd" means that the variant was in the library but no mating with the target was seen in that replicate; the authors take this as a sign of poor binding, and no number exists. For reference, the parent read 0.65 as the reference entry and 4.11 (one replicate of three) as a member of this library. Background: pairings of library AAYL49 with three empty control strains gave a value in 15% of cases (median 4.06, 5th percentile 2.83). Values in that range, when seen in few replicates, are hard to tell from nonspecific mating. Also given: how often the same scFv was detected with the empty control strains, with their mean in brackets.

changes	log10 Kd (nM) by replicate	signal with controls
G26M/T28L/D62Y	nd / nd / 4.05	0/9
S31K/K65C	3.43 / 3.32 / 4.88	0/9
D54T/F59G/K65Q	nd / 4.29 / 4.98	3/9 (4.56)
F59D/G103D/D106F	3.43 / 2.93 / 3.17	2/9 (4.71)
T58Q/G61F/F105I	nd / nd / nd	1/9 (3.00)
G33P/G99Q/R100I	nd / nd / nd	1/9 (4.71)
I34Q/G55M/K65Y	nd / nd / nd	0/9
N30I/V50K/D54W	3.71 / 4.14 / nd	1/9 (4.33)
S35I/S53E/G55C	nd / nd / nd	0/9
N30D/D54T/K65C	nd / nd / nd	1/9 (3.76)
T28A/V50D/A102G	nd / nd / nd	0/9
R56E/R57Y/Y60S	nd / nd / nd	1/9 (3.66)
T58Q/F59R/V64G	nd / nd / nd	1/9 (4.23)
G26E/T28W/S53N	nd / nd / nd	1/9 (2.77)
N30R/G55I/A102C	nd / nd / nd	1/9 (3.83)
S53E/S63H/K65A	4.31 / nd / nd	0/9
I51N/T58H	4.83 / nd / nd	3/9 (4.95)
T28E/R56E/V64Q	2.72 / 4.73 / nd	2/9 (3.90)
N30C/S35H/S53V	nd / nd / 3.29	1/9 (3.29)
I51A/K65E/F105R	nd / nd / nd	0/9
T28K/L29S/I51A	nd / nd / nd	0/9
T58R/V64S/G103P	nd / nd / nd	0/9
Y32C/T58H/R100H	nd / nd / nd	0/9
T58E/D62S	2.60 / 2.40 / 2.68	1/9 (4.62)
T28V/D54K/D106W	nd / nd / nd	0/9
R57S/G61E	nd / nd / nd	0/9
G55M/T104D/D106L	4.77 / 4.94 / 5.01	8/9 (4.83)
A102W/G103F/S107Q	nd / nd / nd	3/9 (4.57)
G61C/F105D	nd / nd / nd	0/9
S31C/D62W/G99E	nd / nd / nd	0/9
S31E/V50C/K65Y	2.47 / 2.22 / 2.42	1/9 (3.79)
T28E/G61L/T104S	1.78 / 1.59 / 1.83	1/9 (2.78)
N30K/T104C/F105T	nd / nd / nd	0/9
Y60Q/K65A/G103A	2.79 / nd / 3.45	1/9 (2.78)
S53D/R56T/A102W	nd / nd / 3.17	1/9 (2.80)
T58G/F59E/G99L	nd / nd / nd	0/9
T28C/G99Y	nd / nd / nd	1/9 (2.35)
G26Q/D62F/F105G	nd / nd / 4.40	0/9
Y52E/R56Q/T104A	5.16 / nd / nd	2/9 (3.75)
N30T/G55H/T58D	nd / nd / 3.10	0/9
S35M/D62V/D106Y	nd / nd / nd	2/9 (3.55)
S53N/Y60N/S63T	nd / 4.41 / nd	1/9 (4.55)
Y32M/S35R/D62V	nd / 4.51 / 5.66	6/9 (4.32)
Y52H/V64S	nd / nd / 4.26	0/9
T28W/N30H/S31G	1.78 / 1.69 / 2.49	1/9 (2.57)
F27S/R56G/D106N	3.49 / nd / 3.85	1/9 (4.81)
D54G/D106T	nd / nd / nd	0/9
G33L/V50L/F59H	nd / nd / nd	0/9